# Results: patent US20160024487
# Key:
# [1] = test system: Lys(Dnp)-ATNATKLPRIVGG-Lys(Abz)
# [2] = test system: Lys(Dnp)-ATNATNNPRIVGG-Lys(Abz)
# [3] = test system: Lys(Dnp)-ATNATRNPRIVGG-Lys(Abz)
# [4] = test system: Lys(Dnp)-ATNATDTPRIVGG-Lys(Abz)
# [5] = test system: Lys(Dnp)-ATNATRKPRIVGG-Lys(Abz)
# [6] = test system: Lys(Dnp)-ATNATHLPRIVGG-Lys(Abz)
# [7] = test system: Lys(Dnp)-ATNATRYPRIVGG-Lys(Abz)
# [8] = test system: Lys(Dnp)-ATNATRWPRIVGG-Lys(Abz)
# [9] = test system: Lys(Dnp)-ATNATEQPRIVGG-Lys(Abz)
# [10] = test system: Lys(Dnp)-ATNATDRPRIVGG-Lys(Abz)
# [11] = test system: Lys(Dnp)-ATNATQEPRIVGG-Lys(Abz)
# [12] = test system: Lys(Dnp)-ATNATRSPRIVGG-Lys(Abz)
# [13] = test system: Lys(Dnp)-ATNATRLPRIVGG-Lys(Abz)
# [14] = test system: Lys(Dnp)-ATNATESPRIVGG-Lys(Abz)
# [15] = test system: Lys(Dnp)-ATNATGLPRIVGG-Lys(Abz)
# [16] = test system: Lys(Dnp)-ATNATSLPRIVGG-Lys(Abz)
# [17] = test system: Lys(Dnp)-ATNATGDPRIVGG-Lys(Abz)
# [18] = test system: Lys(Dnp)-ATNATWLPRIVGG-Lys(Abz)
# [19] = test system: Lys(Dnp)-ATNATHVPRIVGG-Lys(Abz)
# [20] = test system: Lys(Dnp)-ATNATRFPRIVGG-Lys(Abz)
# [21] = test system: Lys(Dnp)-ATNATRMPRIVGG-Lys(Abz)
# [22] = test system: Lys(Dnp)-ATNATHEPRIVGG-Lys(Abz)
# [23] = test system: Lys(Dnp)-ATNATKRPRIVGG-Lys(Abz)
# [24] = test system: Lys(Dnp)-ATNATSNPRIVGG-Lys(Abz)
# [25] = test system: Lys(Dnp)-ATNATNAPRIVGG-Lys(Abz)
# [26] = test system: Lys(Dnp)-ATNATDVPRIVGG-Lys(Abz)
# [27] = test system: Lys(Dnp)-ATNATEMPRIVGG-Lys(Abz)
# [28] = test system: Lys(Dnp)-ATNATYPPRIVGG-Lys(Abz)
# [29] = test system: Lys(Dnp)-ATNATKGPRIVGG-Lys(Abz)
# [30] = test system: Lys(Dnp)-ATNATKVPRIVGG-Lys(Abz)
# [31] = test system: Lys(Dnp)-ATNATQGPRIVGG-Lys(Abz)
# [32] = test system: Lys(Dnp)-ATNATSEPRIVGG-Lys(Abz)
# [33] = test system: Lys(Dnp)-ATNATDLPRIVGG-Lys(Abz)
# [34] = test system: Lys(Dnp)-ATNATQSPRIVGG-Lys(Abz)
# [35] = test system: Lys(Dnp)-ATNATDMPRIVGG-Lys(Abz)
# [36] = test system: Lys(Dnp)-ATNATHDPRIVGG-Lys(Abz)
# [37] = test system: Lys(Dnp)-ATNATEYPRIVGG-Lys(Abz)
# [38] = test system: Lys(Dnp)-ATNATQAPRIVGG-Lys(Abz)
# [39] = test system: Lys(Dnp)-ATNATKEPRIVGG-Lys(Abz)
# [40] = test system: Lys(Dnp)-ATNATDQPRIVGG-Lys(Abz)
# [41] = test system: Lys(Dnp)-ATNATKQPRIVGG-Lys(Abz)
# [42] = test system: Lys(Dnp)-ATNATKIPRIVGG-Lys(Abz)
# [43] = test system: Lys(Dnp)-ATNATKAPRIVGG-Lys(Abz)
# [44] = test system: Lys(Dnp)-ATNATEIPRIVGG-Lys(Abz)
# [45] = test system: Lys(Dnp)-ATNATKSPRIVGG-Lys(Abz)
# [46] = test system: Lys(Dnp)-ATNATERPRIVGG-Lys(Abz)
# [47] = test system: Lys(Dnp)-ATNATRHPRIVGG-Lys(Abz)
# [48] = test system: Lys(Dnp)-ATNATRGPRIVGG-Lys(Abz)
# [49] = test system: Lys(Dnp)-ATNATREPRIVGG-Lys(Abz)
# [50] = test system: Lys(Dnp)-ATNATRTPRIVGG-Lys(Abz)
# [51] = test system: Lys(Dnp)-ATNATNIPRIVGG-Lys(Abz)
# [52] = test system: Lys(Dnp)-ATNATHMPRIVGG-Lys(Abz)
# [53] = test system: Lys(Dnp)-ATNATEGPRIVGG-Lys(Abz)
# [54] = test system: Lys(Dnp)-ATNATYLPRIVGG-Lys(Abz)
# [55] = test system: Lys(Dnp)-ATNATVPPRIVGG-Lys(Abz)
substance,measurement,setting,value
Human plasma purified alpha-thrombin,FIIa kcat/KM,[1],880 M⁻¹ s⁻¹
same,Specificity Ratio (FIIa/FXa),[1],10
same,FIIa kcat/KM,[2],290 M⁻¹ s⁻¹
same,Specificity Ratio (FIIa/FXa),[2],19
same,FIIa kcat/KM,[3],670 M⁻¹ s⁻¹
same,FIIa kcat/KM,[4],250 M⁻¹ s⁻¹
same,Specificity Ratio (FIIa/FXa),[4],38
same,FIIa kcat/KM,[5],590 M⁻¹ s⁻¹
same,Specificity Ratio (FIIa/FXa),[5],1
same,FIIa kcat/KM,[6],470 M⁻¹ s⁻¹
same,Specificity Ratio (FIIa/FXa),[6],3
same,FIIa kcat/KM,[7],690 M⁻¹ s⁻¹
same,Specificity Ratio (FIIa/FXa),[7],1
same,FIIa kcat/KM,[8],1500 M⁻¹ s⁻¹
same,Specificity Ratio (FIIa/FXa),[8],0
same,FIIa kcat/KM,[9],110 M⁻¹ s⁻¹
same,Specificity Ratio (FIIa/FXa),[9],10
same,FIIa kcat/KM,[10],340 M⁻¹ s⁻¹
same,Specificity Ratio (FIIa/FXa),[10],2
same,FIIa kcat/KM,[11],1800 M⁻¹ s⁻¹
same,Specificity Ratio (FIIa/FXa),[11],2
same,FIIa kcat/KM,[12],660 M⁻¹ s⁻¹
same,FIIa kcat/KM,[13],920 M⁻¹ s⁻¹
same,Specificity Ratio (FIIa/FXa),[13],1
same,FIIa kcat/KM,[14],160 M⁻¹ s⁻¹
same,Specificity Ratio (FIIa/FXa),[14],30
same,FIIa kcat/KM,[15],1100 M⁻¹ s⁻¹
same,Specificity Ratio (FIIa/FXa),[15],14
same,FIIa kcat/KM,[16],790 M⁻¹ s⁻¹
same,Specificity Ratio (FIIa/FXa),[16],10
same,FIIa kcat/KM,[17],540 M⁻¹ s⁻¹
same,Specificity Ratio (FIIa/FXa),[17],7
same,FIIa kcat/KM,[18],1800 M⁻¹ s⁻¹
same,Specificity Ratio (FIIa/FXa),[18],4
same,FIIa kcat/KM,[19],540 M⁻¹ s⁻¹
same,Specificity Ratio (FIIa/FXa),[19],14
same,FIIa kcat/KM,[20],770 M⁻¹ s⁻¹
same,Specificity Ratio (FIIa/FXa),[20],1
same,FIIa kcat/KM,[21],790 M⁻¹ s⁻¹
same,FIIa kcat/KM,[22],230 M⁻¹ s⁻¹
same,Specificity Ratio (FIIa/FXa),[22],2
same,FIIa kcat/KM,[23],780 M⁻¹ s⁻¹
same,Specificity Ratio (FIIa/FXa),[23],9
same,FIIa kcat/KM,[24],540 M⁻¹ s⁻¹
same,Specificity Ratio (FIIa/FXa),[24],23
same,FIIa kcat/KM,[25],430 M⁻¹ s⁻¹
same,Specificity Ratio (FIIa/FXa),[25],25
same,FIIa kcat/KM,[26],460 M⁻¹ s⁻¹
same,Specificity Ratio (FIIa/FXa),[26],30
same,FIIa kcat/KM,[27],150 M⁻¹ s⁻¹
same,Specificity Ratio (FIIa/FXa),[27],12
same,FIIa kcat/KM,[28],380 M⁻¹ s⁻¹
same,Specificity Ratio (FIIa/FXa),[28],19
same,FIIa kcat/KM,[29],460 M⁻¹ s⁻¹
same,Specificity Ratio (FIIa/FXa),[29],14
same,FIIa kcat/KM,[30],590 M⁻¹ s⁻¹
same,Specificity Ratio (FIIa/FXa),[30],12
same,FIIa kcat/KM,[31],1100 M⁻¹ s⁻¹
same,Specificity Ratio (FIIa/FXa),[31],7
same,FIIa kcat/KM,[32],390 M⁻¹ s⁻¹
same,Specificity Ratio (FIIa/FXa),[32],17
same,FIIa kcat/KM,[33],210 M⁻¹ s⁻¹
same,Specificity Ratio (FIIa/FXa),[33],8
same,FIIa kcat/KM,[34],3100 M⁻¹ s⁻¹
same,Specificity Ratio (FIIa/FXa),[34],3
same,FIIa kcat/KM,[35],140 M⁻¹ s⁻¹
same,Specificity Ratio (FIIa/FXa),[35],12
same,FIIa kcat/KM,[36],490 M⁻¹ s⁻¹
same,Specificity Ratio (FIIa/FXa),[36],6
same,FIIa kcat/KM,[37],430 M⁻¹ s⁻¹
same,Specificity Ratio (FIIa/FXa),[37],29
same,FIIa kcat/KM,[38],1800 M⁻¹ s⁻¹
same,Specificity Ratio (FIIa/FXa),[38],5
same,FIIa kcat/KM,[39],270 M⁻¹ s⁻¹
same,Specificity Ratio (FIIa/FXa),[39],4
same,FIIa kcat/KM,[40],160 M⁻¹ s⁻¹
same,Specificity Ratio (FIIa/FXa),[40],75
same,FIIa kcat/KM,[41],640 M⁻¹ s⁻¹
same,Specificity Ratio (FIIa/FXa),[41],6
same,FIIa kcat/KM,[42],990 M⁻¹ s⁻¹
same,Specificity Ratio (FIIa/FXa),[42],16
same,FIIa kcat/KM,[43],360 M⁻¹ s⁻¹
same,Specificity Ratio (FIIa/FXa),[43],7
same,FIIa kcat/KM,[44],460 M⁻¹ s⁻¹
same,Specificity Ratio (FIIa/FXa),[44],8
same,FIIa kcat/KM,[45],470 M⁻¹ s⁻¹
same,Specificity Ratio (FIIa/FXa),[45],6
same,FIIa kcat/KM,[46],1100 M⁻¹ s⁻¹
same,Specificity Ratio (FIIa/FXa),[46],4
same,FIIa kcat/KM,[47],960 M⁻¹ s⁻¹
same,FIIa kcat/KM,[48],880 M⁻¹ s⁻¹
same,Specificity Ratio (FIIa/FXa),[48],1
same,FIIa kcat/KM,[49],870 M⁻¹ s⁻¹
same,Specificity Ratio (FIIa/FXa),[49],0
same,FIIa kcat/KM,[50],640 M⁻¹ s⁻¹
same,FIIa kcat/KM,[51],640 M⁻¹ s⁻¹
same,Specificity Ratio (FIIa/FXa),[51],17
same,FIIa kcat/KM,[52],1300 M⁻¹ s⁻¹
same,Specificity Ratio (FIIa/FXa),[52],5
same,FIIa kcat/KM,[53],98 M⁻¹ s⁻¹
same,Specificity Ratio (FIIa/FXa),[53],5
same,FIIa kcat/KM,[54],2100 M⁻¹ s⁻¹
same,Specificity Ratio (FIIa/FXa),[54],6
same,FIIa kcat/KM,[55],95 M⁻¹ s⁻¹
same,Specificity Ratio (FIIa/FXa),[55],15
Human plasma purified α-thrombin,kcat/KM,[1],880 M⁻¹ s⁻¹
same,kcat/KM,[2],290 M⁻¹ s⁻¹
same,kcat/KM,[3],670 M⁻¹ s⁻¹
same,kcat/KM,[4],250 M⁻¹ s⁻¹
same,kcat/KM,[5],590 M⁻¹ s⁻¹
same,kcat/KM,[6],470 M⁻¹ s⁻¹
same,kcat/KM,[7],690 M⁻¹ s⁻¹
same,kcat/KM,[8],1500 M⁻¹ s⁻¹
same,kcat/KM,[9],110 M⁻¹ s⁻¹
same,kcat/KM,[10],340 M⁻¹ s⁻¹
same,kcat/KM,[11],1800 M⁻¹ s⁻¹
same,kcat/KM,[12],660 M⁻¹ s⁻¹
same,kcat/KM,[13],920 M⁻¹ s⁻¹
same,kcat/KM,[14],160 M⁻¹ s⁻¹
same,kcat/KM,[15],1100 M⁻¹ s⁻¹
same,kcat/KM,[16],790 M⁻¹ s⁻¹
same,kcat/KM,[17],540 M⁻¹ s⁻¹
same,kcat/KM,[18],1800 M⁻¹ s⁻¹
same,kcat/KM,[19],540 M⁻¹ s⁻¹
same,kcat/KM,[20],770 M⁻¹ s⁻¹
same,kcat/KM,[21],790 M⁻¹ s⁻¹
same,kcat/KM,[22],230 M⁻¹ s⁻¹
same,kcat/KM,[23],780 M⁻¹ s⁻¹
same,kcat/KM,[24],540 M⁻¹ s⁻¹
same,kcat/KM,[25],430 M⁻¹ s⁻¹
same,kcat/KM,[26],460 M⁻¹ s⁻¹
same,kcat/KM,[27],150 M⁻¹ s⁻¹
same,kcat/KM,[28],380 M⁻¹ s⁻¹
same,kcat/KM,[29],460 M⁻¹ s⁻¹
same,kcat/KM,[30],590 M⁻¹ s⁻¹
same,kcat/KM,[31],1100 M⁻¹ s⁻¹
same,kcat/KM,[32],390 M⁻¹ s⁻¹
same,kcat/KM,[33],210 M⁻¹ s⁻¹
same,kcat/KM,[34],3100 M⁻¹ s⁻¹
same,kcat/KM,[35],140 M⁻¹ s⁻¹
same,kcat/KM,[36],490 M⁻¹ s⁻¹
same,kcat/KM,[37],430 M⁻¹ s⁻¹
same,kcat/KM,[38],1800 M⁻¹ s⁻¹
same,kcat/KM,[39],270 M⁻¹ s⁻¹
same,kcat/KM,[40],160 M⁻¹ s⁻¹
same,kcat/KM,[41],640 M⁻¹ s⁻¹
same,kcat/KM,[42],990 M⁻¹ s⁻¹
same,kcat/KM,[43],360 M⁻¹ s⁻¹
same,kcat/KM,[44],460 M⁻¹ s⁻¹
same,kcat/KM,[45],470 M⁻¹ s⁻¹
same,kcat/KM,[46],1100 M⁻¹ s⁻¹
same,kcat/KM,[47],960 M⁻¹ s⁻¹
same,kcat/KM,[48],880 M⁻¹ s⁻¹
same,kcat/KM,[49],870 M⁻¹ s⁻¹
same,kcat/KM,[50],640 M⁻¹ s⁻¹
same,kcat/KM,[51],640 M⁻¹ s⁻¹
same,kcat/KM,[52],1300 M⁻¹ s⁻¹
same,kcat/KM,[53],98 M⁻¹ s⁻¹
same,kcat/KM,[54],2100 M⁻¹ s⁻¹
same,kcat/KM,[55],95 M⁻¹ s⁻¹
